# According to patent publication US5576187A (priority 1994, dated 1996):
# Some compounds may have been tested in ways that are not shown here.
# How the values were obtained:
# [1] = system: anti-chlorpyrifos monoclonal antibody; settings: competition assay, 15 minutes at room temperature, absorbance at 450 nm
# [2] = storage at 50, 37, RT, 4, or minus 20° C.; curves only in FIGS. 2-5
smiles,measurement,setting,value
CCOP(=S)(Cl)OCC,relative reactivity: concentration equivalent to 1 ppB of chlorpyrifos in the immunoassay,[1],8 ppm
same,stability upon storage (B/Bo in the immunoassay as a function of storage time and temperature),[2],more stable than chlorpyrifos
